Reference: US9862716B2, “TRKA kinase inhibitors, compositions and methods thereof” (Merck Sharp & Dohme Corp., priority 2014, dated 2018)

By UniProt entry, the sequences of proteins in these tests, tags left out. Residues count along the entry.
UniProt P04629, 33-796: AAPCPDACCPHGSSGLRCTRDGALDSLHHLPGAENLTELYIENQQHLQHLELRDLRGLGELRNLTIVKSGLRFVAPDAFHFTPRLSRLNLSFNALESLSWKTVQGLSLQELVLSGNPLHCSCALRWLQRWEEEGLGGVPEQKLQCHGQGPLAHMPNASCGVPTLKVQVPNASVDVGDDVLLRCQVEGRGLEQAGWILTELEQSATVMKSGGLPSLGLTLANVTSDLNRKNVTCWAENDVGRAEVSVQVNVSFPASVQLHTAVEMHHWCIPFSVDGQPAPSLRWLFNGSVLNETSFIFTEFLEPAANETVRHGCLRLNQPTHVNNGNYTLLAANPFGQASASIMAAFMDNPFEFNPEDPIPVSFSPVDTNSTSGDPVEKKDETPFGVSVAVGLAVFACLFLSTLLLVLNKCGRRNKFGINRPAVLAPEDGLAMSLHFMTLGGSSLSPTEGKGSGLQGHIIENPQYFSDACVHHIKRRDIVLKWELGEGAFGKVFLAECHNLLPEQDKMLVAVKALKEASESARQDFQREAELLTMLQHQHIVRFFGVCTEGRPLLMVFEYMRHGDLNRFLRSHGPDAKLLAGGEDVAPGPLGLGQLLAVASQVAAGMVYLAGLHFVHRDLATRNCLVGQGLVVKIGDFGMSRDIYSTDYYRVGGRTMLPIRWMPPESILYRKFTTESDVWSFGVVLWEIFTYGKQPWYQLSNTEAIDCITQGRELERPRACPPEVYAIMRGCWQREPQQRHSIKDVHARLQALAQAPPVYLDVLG

Target: T1, human TrkA receptor (Homo sapiens, UniProt P04629)
T1 construct: host or cells: U2OS cells (PathHunter cell line)
Assay: DiscoverX PathHunter TrkA functional assay (NGF-stimulated U2OS cells)
Format: cell-based
Conditions: U2OS cells expressing human TrkA-PK, Shc1-EA and p75NTR; compound 1 h, then NGF at ~80% of maximal response for 3 h; luminescence
Description: TrkA functional activity was measured using a DiscoverX PathHunter assay. In this assay, U2OS cells express the human TrkA receptor as a fusion with the weakly complementing fragment of B-galactosidase, which DiscoverX calls “Prolink (PK)”; additionally, Shc1 is fused with a larger fragment, which is called “Enzyme Acceptor (EA)”. Activation of the TrkA receptor, upon NGF addition, results in the kinase domain being phosphorylated, resulting in subsequent recruitment of Shc1-EA protein. That recruitment results in an active B-galactosidase enzyme that is detected by addition of a chemiluminescent substrate. The human p75^NTR protein was also expressed as a co-receptor for NGF.
All reagents were purchased from DiscoverX, except for the receptor agonists (NGF, BDNF, NT3) which were purchased from Peprotech. Cells were expanded and frozen into cryovials, and stored in the vapor phase of liquid nitrogen, and thawed immediately before use. Thawed cells were added to a 384-well plate at 7500 cells/well, and allowed to incubate overnight. Compound at various concentrations was added the following morning and allowed to incubate on cells for 1 h. Then, NGF was added at a concentration sufficient to elicit ˜80% of a maximal response and allowed to incubate for 3 h at ambient temperature. […] The plate was then read via luminescence on the Perkin Elmer Envision.

SMILES | IC50
Cn1ccc(-c2cc(C(=O)Nc3c(-c4ccccc4)nc4cc(CNC(=O)C5(O)CC5)ccn34)ccc2C(F)(F)F)n1 [Compound 82, N-[7-({[(1-hydroxycyclopropyl)carbonyl]amino}methyl)-2-phenylimidazo[1,2-a]pyridin-3-yl]-3-(1-methyl-1H-pyrazol-3-yl)-4-(trifluoromethyl) benzamide] | 4.6 nM
CC(O)c1ccn2c(NC(=O)c3ccc(C(F)(F)F)c(-c4ncccn4)c3)c(-c3ccccc3)nc2c1 (single isomer, unassigned) [Compound 68, (R or S)-N-[7-(1-hydroxyethyl)-2-phenylimidazo[1,2-a]pyridin-3-yl]-3-pyrimidin-2-yl-4-(trifluoromethyl) benzamide] | 4.6 nM
